Experimental data published in PubChem BioAssay (NCI).
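Results reflect a 48-hour exposure of cells in 96-well plates to compound at five concentrations. GI50 is the concentration that inhibits growth by half. TGI: concentration producing complete growth inhibition.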

Legend:
Assay in all cases: DTP human tumour cell line panel, 48 h
HT29 colon = tested on: HT29 colon
SK-MEL-28 melanoma = tested on: SK-MEL-28 melanoma
OVCAR-5 ovarian = tested on: OVCAR-5 ovarian
NCI-H226 lung = tested on: NCI-H226 lung
SNB-19 CNS = tested on: SNB-19 CNS
UO-31 renal = tested on: UO-31 renal
MOLT-4 leukemia = tested on: MOLT-4 leukemia
IGROV1 ovarian = tested on: IGROV1 ovarian
K-562 leukemia = tested on: K-562 leukemia
TK-10 renal = tested on: TK-10 renal
HOP-92 NSCLC = tested on: HOP-92 NSCLC
CAKI-1 renal = tested on: CAKI-1 renal
DU-145 prostate = tested on: DU-145 prostate
HCT-15 colon = tested on: HCT-15 colon
HCT-116 colon = tested on: HCT-116 colon
PC-3 prostate = tested on: PC-3 prostate
MDA-MB-231 breast = tested on: MDA-MB-231 breast
M14 melanoma = tested on: M14 melanoma
NCI-H522 lung = tested on: NCI-H522 lung
MDA-N = tested on: MDA-N
A498 renal = tested on: A498 renal
SF-268 CNS = tested on: SF-268 CNS
CCRF-CEM leukemia = tested on: CCRF-CEM leukemia
HCC-2998 colon = tested on: HCC-2998 colon
UACC-62 melanoma = tested on: UACC-62 melanoma
NCI-H460 lung = tested on: NCI-H460 lung
SN12C renal = tested on: SN12C renal
NCI-H322M lung = tested on: NCI-H322M lung
A549 NSCLC = tested on: A549 NSCLC
EKVX NSCLC = tested on: EKVX NSCLC
HS 578T breast = tested on: HS 578T breast
786-0 renal = tested on: 786-0 renal
SW-620 colon = tested on: SW-620 colon
OVCAR-4 ovarian = tested on: OVCAR-4 ovarian
SF-295 CNS = tested on: SF-295 CNS
U251 CNS = tested on: U251 CNS
UACC-257 melanoma = tested on: UACC-257 melanoma
HOP-62 NSCLC = tested on: HOP-62 NSCLC
RXF 393 renal = tested on: RXF 393 renal
NCI/ADR-RES ovarian = tested on: NCI/ADR-RES ovarian
ACHN renal = tested on: ACHN renal
NCI-H23 lung = tested on: NCI-H23 lung
SK-MEL-5 melanoma = tested on: SK-MEL-5 melanoma
SK-MEL-2 melanoma = tested on: SK-MEL-2 melanoma
MDA-MB-435 = tested on: MDA-MB-435
HL-60(TB) leukemia = tested on: HL-60(TB) leukemia
MALME-3M melanoma = tested on: MALME-3M melanoma
BT-549 breast = tested on: BT-549 breast
LOX IMVI melanoma = tested on: LOX IMVI melanoma
SR leukemia = tested on: SR leukemia
OVCAR-8 ovarian = tested on: OVCAR-8 ovarian
OVCAR-3 ovarian = tested on: OVCAR-3 ovarian
KM12 colon = tested on: KM12 colon
T-47D breast = tested on: T-47D breast

`O=C(O)C(O)c1ccc([As](=O)(O)O)cc1` (stereo not drawn) was tested, and the GI50 (HT29 colon) was greater than 100 µM, the TGI (HT29 colon) was greater than 100 µM and the GI50 (SK-MEL-28 melanoma) was greater than 100 µM. It also gave a TGI (SK-MEL-28 melanoma) greater than 100 µM, a GI50 (OVCAR-5 ovarian) greater than 100 µM and a TGI (OVCAR-5 ovarian) greater than 100 µM. It also gave a GI50 (NCI-H226 lung) greater than 100 µM, a TGI (NCI-H226 lung) greater than 100 µM and a GI50 (SNB-19 CNS) greater than 100 µM. It also gave a TGI (SNB-19 CNS) greater than 100 µM, a GI50 (UO-31 renal) greater than 100 µM and a TGI (UO-31 renal) greater than 100 µM. The GI50 (MOLT-4 leukemia) was greater than 100 µM, the TGI (MOLT-4 leukemia) was greater than 100 µM and the GI50 (IGROV1 ovarian) was greater than 100 µM. It also gave a TGI (IGROV1 ovarian) greater than 100 µM, a GI50 (K-562 leukemia) greater than 100 µM and a TGI (K-562 leukemia) greater than 100 µM. It also gave a GI50 (TK-10 renal) greater than 100 µM, a TGI (TK-10 renal) greater than 100 µM and a GI50 (HOP-92 NSCLC) greater than 100 µM. It also gave a TGI (HOP-92 NSCLC) greater than 100 µM, a GI50 (CAKI-1 renal) greater than 100 µM and a TGI (CAKI-1 renal) greater than 100 µM. The GI50 (DU-145 prostate) was greater than 100 µM, the TGI (DU-145 prostate) was greater than 100 µM and the GI50 (HCT-15 colon) was greater than 100 µM. It also gave a TGI (HCT-15 colon) greater than 100 µM, a GI50 (HCT-116 colon) greater than 100 µM and a TGI (HCT-116 colon) greater than 100 µM. It also gave a GI50 (PC-3 prostate) greater than 100 µM, a TGI (PC-3 prostate) greater than 100 µM and a GI50 (MDA-MB-231 breast) greater than 100 µM. For the same compound, the TGI (MDA-MB-231 breast) was greater than 100 µM, the GI50 (M14 melanoma) was greater than 100 µM and the TGI (M14 melanoma) was greater than 100 µM. It also gave a GI50 (NCI-H522 lung) greater than 100 µM, a TGI (NCI-H522 lung) greater than 100 µM and a GI50 (MDA-N) greater than 100 µM. It also gave a TGI (MDA-N) greater than 100 µM, a GI50 (A498 renal) greater than 100 µM and a TGI (A498 renal) greater than 100 µM. It also gave a GI50 (SF-268 CNS) greater than 100 µM, a TGI (SF-268 CNS) greater than 100 µM and a GI50 (CCRF-CEM leukemia) greater than 100 µM. It also gave a TGI (CCRF-CEM leukemia) greater than 100 µM, a GI50 (HCC-2998 colon) greater than 100 µM and a TGI (HCC-2998 colon) greater than 100 µM. For the same compound, the GI50 (UACC-62 melanoma) was greater than 100 µM, the TGI (UACC-62 melanoma) was greater than 100 µM and the GI50 (NCI-H460 lung) was greater than 100 µM. For the same compound, the TGI (NCI-H460 lung) was greater than 100 µM, the GI50 (SN12C renal) was greater than 100 µM and the TGI (SN12C renal) was greater than 100 µM. The GI50 (NCI-H322M lung) was greater than 100 µM, the TGI (NCI-H322M lung) was greater than 100 µM and the GI50 (A549 NSCLC) was greater than 100 µM. For the same compound, the TGI (A549 NSCLC) was greater than 100 µM, the GI50 (EKVX NSCLC) was greater than 100 µM and the TGI (EKVX NSCLC) was greater than 100 µM. The GI50 (HS 578T breast) was greater than 100 µM, the TGI (HS 578T breast) was greater than 100 µM and the GI50 (786-0 renal) was greater than 100 µM. For the same compound, the TGI (786-0 renal) was greater than 100 µM, the GI50 (SW-620 colon) was greater than 100 µM and the TGI (SW-620 colon) was greater than 100 µM. For the same compound, the GI50 (OVCAR-4 ovarian) was greater than 100 µM, the TGI (OVCAR-4 ovarian) was greater than 100 µM and the GI50 (SF-295 CNS) was greater than 100 µM. It also gave a TGI (SF-295 CNS) greater than 100 µM, a GI50 (U251 CNS) greater than 100 µM and a TGI (U251 CNS) greater than 100 µM. For the same compound, the GI50 (UACC-257 melanoma) was greater than 100 µM, the TGI (UACC-257 melanoma) was greater than 100 µM and the GI50 (HOP-62 NSCLC) was greater than 100 µM. For the same compound, the TGI (HOP-62 NSCLC) was greater than 100 µM, the GI50 (RXF 393 renal) was greater than 100 µM and the TGI (RXF 393 renal) was greater than 100 µM. For the same compound, the GI50 (NCI/ADR-RES ovarian) was greater than 100 µM, the TGI (NCI/ADR-RES ovarian) was greater than 100 µM and the GI50 (ACHN renal) was greater than 100 µM. For the same compound, the TGI (ACHN renal) was greater than 100 µM, the GI50 (NCI-H23 lung) was greater than 100 µM and the TGI (NCI-H23 lung) was greater than 100 µM. It also gave a GI50 (SK-MEL-5 melanoma) greater than 100 µM, a TGI (SK-MEL-5 melanoma) greater than 100 µM and a GI50 (SK-MEL-2 melanoma) greater than 100 µM. For the same compound, the TGI (SK-MEL-2 melanoma) was greater than 100 µM, the GI50 (MDA-MB-435) was greater than 100 µM and the TGI (MDA-MB-435) was greater than 100 µM. The GI50 (HL-60(TB) leukemia) was greater than 100 µM, the TGI (HL-60(TB) leukemia) was greater than 100 µM and the GI50 (MALME-3M melanoma) was greater than 100 µM. For the same compound, the TGI (MALME-3M melanoma) was greater than 100 µM, the GI50 (BT-549 breast) was greater than 100 µM and the TGI (BT-549 breast) was greater than 100 µM. The GI50 (LOX IMVI melanoma) was greater than 100 µM, the TGI (LOX IMVI melanoma) was greater than 100 µM and the GI50 (SR leukemia) was greater than 100 µM. The TGI (SR leukemia) was greater than 100 µM, the GI50 (OVCAR-8 ovarian) was greater than 100 µM and the TGI (OVCAR-8 ovarian) was greater than 100 µM. The GI50 (OVCAR-3 ovarian) was greater than 100 µM, the TGI (OVCAR-3 ovarian) was greater than 100 µM and the GI50 (KM12 colon) was greater than 100 µM. It also gave a TGI (KM12 colon) greater than 100 µM, a GI50 (T-47D breast) greater than 100 µM and a TGI (T-47D breast) greater than 100 µM.
